Test system: bronchospheres (human bronchial epithelial cells)
Assay: Bronchosphere assay of secreted recombinant human proteins, qPCR of cell type markers and immunostaining
Type: cell-based
Method: Human bronchial epithelial (HBE) cells and culture media were obtained from Lonza. Air-liquid interface cultures using passage 2 (P2) cells were performed as previously described (Danahay, H. et al., American journal of physiology. Lung cellular and molecular physiology 282, L226-236 (2002)). For three-dimensional culturing of HBE cells, P1 cells were trypsinized and resuspended (30,000 cells/ml) in HBE differentiation media containing 5% growth factor-reduced Matrigel (BD Biosciences). 20 μl of suspension was plated in each well of a 384-well plate (Greiner) pre-coated with 10 μl of a 25% solution of Matrigel (BD Biosciences) in HBE differentiation media. Wells were fed or treated at day 2 and day 8 of culture by adding 30 μl of differentiation media containing the appropriate treatment. Three-dimensional cultures were analyzed at the time points indicated.
Immunofluorescence of HBEC bronchospheres was performed as described previously for MCF10A cysts (Debnath, J. et al., Methods 30, 256-268 (2003) with the following modifications. After incubation with fluorescence-conjugated secondary antibodies, DNA was stained with a 1:1 mix of PBS and ProLong gold antifade containing DAPI. Confocal microscopy was performed at room temperature on a microscope (Zeiss LSM510 Meta) using an EC Plan-Neofluar 10×/0.30 dry objective (Zeiss), an EC Plan-Neofluor 20×/0.5 dry objective (Zeiss), a C-Apochromat 40×/1.2 W corr (Zeiss), or a C-Apochromat 63×/1.2 W Corr objective (Zeiss). Images were collected with Zen confocal software (Zeiss). Scale bars were added, and images were processed using Zen (Zeiss) and Photoshop (Adobe). Air-liquid interface (ALI) cultures were processed for immunofluorescence analysis after 14 days of culture at ALI by rinsing the apical surface of each filter with PBS, and then fixing in 4% paraformaldehyde for 4 hours. Filters were washed with IF buffer (130 mM NaCl, 7 mM Na2HPO4, 3.5 mM NaH2PO4, 7.7 mM NaN3, 0.1% bovine serum albumin, 0.2% Triton X-100, 0.05% Tween-20), blocked with IF wash containing 10% goat serum, and stained with primary antibody in IF wash containing 10% goat serum overnight at 4° C. […] To quantify the total staining area of ALI cultures, 10×13 images were collected with a plan Neofluar 10×0.3 NA Ph1 objective (EC; Carl Zeiss, Inc.) on a microscope (Axiovert 200; Carl Zeiss, Inc.) equipped with a motorized stage and a camera (Orca-ER-1394; Hamamatsu Photonics) controlled by Axiovision software (Carl Zeiss, Inc.) and used to generate a single composite image using the MOSAIX function in Zeiss Axiovision. Quantification of the total staining area was performed with ImageJ. […] Cells positive for MUC5AC, MUC5B, or cilia (acetylated α-Tubulin) staining were counted manually. […]

For “IFN-α-2: secreted, recombinant human protein profiled in the bronchosphere assay”, the “change in expression of at least one cell-type marker, initial screen” value (55 proteins tested at 3.3, 10 and 30 ng/mL) was “concentration-dependent change”, the “expression of both of the ciliated cell markers” value (markers FOXJ1, DNAI2) was “attenuated” and the “expression of at least two of the goblet cell markers” value (markers MUC5AC, MUC5B, FOXA3) was “enhanced”. For the same substance, the “change in expression of at least one of the cell-type markers, on validation” value (validation, expanded concentration range) was “robust change”.
